The numbers were not newly measured in publication PMC10552749, “Anti-methicillin-resistant Staphylococcus aureus and antibiofilm activity of new peptides produced by a Brevibacillus strain” (PeerJ, 2023), which cites them from elsewhere.

For the data set the following is noted: ref Baczek, Walijewski & Kaliszan, 2008, cited from earlier work. The source says:
In the present study, five anti-MRSA peptides were separated from SPR19 by RPC. P1 was first eluted from the column because it had the lowest hydrophobicity and high polarity because of four negatively charged amino acids (glutamate). This was supported by a previous study that determined the peptide retention in RPC when using acetonitrile as an eluting solution and trifluoroacetic acid (TFA) as an ion-pairing agent. They used the synthesized peptides with close molecular weight but different hydrophobicity as the model peptides. The uniform distribution of peptide peaks in the chromatogram w ...

On to “DAEFRHDSGY-NH2 [literature model peptide for RPC retention]”, for which the pI is reported as 4.54. Besides, the RPC retention time (isocratic elution by 0.1% TFA and ACN) is 7.24 min.
